The values below are quoted from earlier work in article PMC4463590.

In this data set the target is cyclin A (Homo sapiens) (UniProt P20248).

For CDK2 (from UniProt P24941), the Kd was 600 nM.

What is called Kd is the constant that tells how readily two partners part at equilibrium.
